Measurements: US9598447B2, “Phosphorus-substituted quinoxaline-type piperidine compounds and uses thereof” (dated 2017)

Assays:
[1] = molecular target: T1, human opioid receptor-like (ORL-1) (Homo sapiens (Human), UniProt P41146); test: ORL-1 receptor [35S]GTPγS functional binding assay; conditions: for GTPγS Emax [mean ± SEM] ORL-1: relative to the effect elicited by nociceptin; for EC50: read-out: GTPγS EC50 [mean ± SEM] ORL-1
human μ-receptors = human μ-receptors (Homo sapiens (Human), UniProt P35372); test: Mu-opioid receptor [35S]GTPγS functional assay; conditions: for EC50: read-out: GTPγS EC50 [mean ± SEM] Opioid Receptor Mu; for GTPγS Emax [mean ± SEM] Opioid Receptor Mu: relative to the effect elicited by DAMGO
kappa opioid receptor [2] = molecular target: T2, kappa opioid receptor (Homo sapiens (Human), UniProt P41145); test: Kappa-opioid receptor [35S]GTPγS functional assay; conditions: read-out: GTPγS EC50 [mean ± SEM] Opioid Receptor Kappa
[3] = molecular target: T1, human opioid receptor-like (ORL-1); test: In vitro ORL-1 receptor binding assay ([3H]-nociceptin displacement); conditions: read-out: Ki [Average ± Std Deviation] ORL-1; membranes from recombinant HEK-293 cells
kappa opioid receptor [4] = molecular target: T2, kappa opioid receptor; test: In vitro kappa-opioid receptor binding assay ([3H]-U69,593 displacement); conditions: read-out: Ki [Average ± Std Deviation] Opioid Receptor Kappa; membranes from recombinant HEK-293 cells
human μ-opioid receptors = human μ-opioid receptors (Homo sapiens (Human), UniProt P35372); test: In vitro mu-opioid receptor binding assay ([3H]-diprenorphine displacement); conditions: read-out: Ki [Average ± Std Deviation] Opioid Receptor Mu; membranes expressing human μ-receptors
delta opioid receptor = delta opioid receptor (Homo sapiens (Human), UniProt P41143); test: In vitro delta-opioid receptor binding assay ([3H]-Naltrindole displacement); conditions: read-out: Ki [Average ± Std Deviation] Opioid Receptor Delta; recombinant receptor expressed in CHO-K1 cells

SMILES | GTPγS Emax [mean ± SEM] ORL-1 [1] [%] | EC50 (human μ-receptors) [nM] | EC50 (kappa opioid receptor [2]) [nM] | EC50 [1] [nM] | Ki [3] [nM] | Ki (kappa opioid receptor [4]) [nM] | Ki (human μ-opioid receptors) [nM] | Ki (delta opioid receptor) [nM] | GTPγS Emax [mean ± SEM] Opioid Receptor Mu (human μ-receptors) [%]
O=c1c(P(=O)(O)O)nc2ccccc2n1[C@H]1C[C@H]2CC[C@@H](C1)N2C12CC3CC(CC1C3)C2 | 81.7 ± 5.8 | – | – | – | – | – | – | – | –
O=c1c(NCCP(=O)(O)O)nc2ccccc2n1[C@H]1C[C@H]2CCC[C@@H](C1)N2[C@H]1C[C@@H]2CCC[C@@H](C2)C1 | 11.6 ± 0.6 | – | – | – | – | – | – | – | –
CCOP(=O)(/C=C/c1nc2ccccc2n([C@H]2C[C@H]3CCC[C@@H](C2)N3[C@H]2C[C@@H]3C[C@@H](C)C[C@@H](C3)C2)c1=O)OCC | 62 ± 5 | > 20000 | > 20000 | 2.32 | 2.62 | 2.5 | 29.8 | 3980 | –
C[C@@H]1C[C@@H]2C[C@H](C1)C[C@@H](N1[C@@H]3CCC[C@H]1C[C@@H](n1c(=O)c(N4CC=C(P(C)(=O)O)CC4)nc4ccccc41)C3)C2 | 21.7 ± 3.7 | – | – | – | – | – | – | – | –
C[C@@H]1C[C@@H]2C[C@H](C1)C[C@@H](N1[C@@H]3CCC[C@H]1C[C@@H](n1c(=O)c(P(=O)(O)O)nc4ccccc41)C3)C2 | 55.0 ± 1.2 | > 20000 | > 20000 | – | – | 267 | 28.3 | – | –
CCOP(=O)(OCC)c1nc2ccccc2n([C@H]2C[C@H]3CC[C@@H](C2)N3C23CC4CC(CC2C4)C3)c1=O | 61.7 ± 2.0 | > 20000 | > 20000 | – | – | – | – | > 20000 | −0.33 ± 0.67
C[C@@H]1C[C@@H]2C[C@H](C1)C[C@@H](N1[C@@H]3CCC[C@H]1C[C@@H](n1c(=O)c(/C=C/P(=O)(O)O)nc4ccccc41)C3)C2 | 33.3 ± 0.8 | > 20000 | > 20000 | – | – | 403 | – | 5590 | –
O=c1c(P(=O)(O)O)nc2ccccc2n1[C@H]1C[C@H]2CCC[C@@H](C1)N2[C@H]1C[C@@H]2CCC[C@@H](C2)C1 | 21 ± 1 | – | – | – | – | – | – | – | –
C[C@@H]1C[C@@H]2C[C@H](C1)C[C@@H](N1[C@@H]3CCC[C@H]1C[C@@H](n1c(=O)c(P(=O)(O)OCOC(=O)c4ccccc4)nc4ccccc41)C3)C2 | 34.3 ± 0.7 | > 20000 | > 20000 | 13.8 | – | 37.9 | 396 | 5300 | –
C[C@@H]1C[C@@H]2C[C@H](C1)C[C@@H](N1[C@@H]3CCC[C@H]1C[C@@H](n1c(=O)c(CCP(=O)(O)O)nc4ccccc41)C3)C2 | 34.8 ± 1.8 | > 20000 | > 20000 | 3.94 | – | 78 | 129 | 5910 | 0.33 ± 0.67
C[C@@H]1C[C@@H]2C[C@H](C1)C[C@@H](N1[C@@H]3CCC[C@H]1C[C@@H](n1c(=O)c(NCCP(=O)(O)O)nc4ccccc41)C3)C2 | 18.5 ± 1.4 | – | – | – | – | – | – | – | –
CC1(C)[C@H]2CC[C@@H](CCN3[C@@H]4CCC[C@H]3C[C@@H](n3c(=O)c(P(=O)(O)O)nc5ccccc53)C4)[C@@H]1C2 | 40 ± 3 | – | > 20000 | 15 | 11.1 | 43.7 | > 20000 | > 20000 | –
O=c1c(P(=O)(O)O)nc2ccccc2n1[C@H]1C[C@H]2CCC[C@@H](C1)N2C1CCCCCCC1 | 130 ± 7 | – | – | – | 29.3 | – | – | – | –
